# The list is not random: actives were taken first. Their share in the collection is about 13%.
# miR-21 reporter = raises the signal of a miR-21 reporter | Potency, µM (doses to about 38.3 µM), for inactives: top-dose reporter change, positive = more light | HeLa miR-21 FLuc reporter, luciferase, 48 h | AID 2288 | 340,000 tested, under 10 active; active = well fitted rising curve with a large enough effect; inconclusive = small, poorly fitted or top-dose-only effect; inactive = no such curve, though single readings can be large or run the other way;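 also: % of control where 0% means no effect; miR-21 action dims this reporter so a rising signal means less miR-21 action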
#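 HeLa miR-21-FLuc reporter line, endogenous miR-21; 2000 cells/well in DMEM/10% FBS; compound titration up to ~40uM final, 48 h, 37 degree Celsius; luciferase detection reagent, 15 min lysis, CCD luminescence.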
# KDM4E inh = JMJD2E (human) inhibition; B2RXH2; JMJD2E catalytic domain, FDH-coupled NADH fluorescence (FDH is formaldehyde dehydrogenase); Potency, µM (doses to about 57.1 µM), for inactives: at the top dose activity change, negative = inhibition, actives largely listed as inhibitors; 1.6% of 230,000 active; AID 2147; active means well fitted inhibition curve with a large enough effect, not every such curve was filed as active; inconclusive means small, poorly fitted or top-dose-only effect, or another doubt; inactive means no such curve, though single readings can be large or run the other way;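 further: potency means the concentration at half of the fitted maximal effect; 0% = wells with enzyme and -100% = buffer wells without enzyme; nearly all actives have a fitted effect of over 50% in size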
# LMNA splice mod = changes lamin A minigene splicing in HeLa cells; HeLa LMNA splicing GFP/RFP minigene ratio, 48 h; Potency, µM (titrated, usually from 46.1 µM), for inactives: at the highest dose ratio change, negative = inhibition, usual class: inhibitors; 0.01% of 200,000 active; AID 1487; active means well fitted inhibition curve with a large enough effect in the signal ratio, with a control signal flat, not every such curve was filed as active; inconclusive means small, poorly fitted or top-dose-only effect, or effect the other way, or a change in a side signal; the % refers to the signal ratio; further: potency means the concentration at half of the fitted maximal effect; on the % scale 0 is the no-effect control and ±100 the full control effect
#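 S3 HeLa stable clones carrying a lamin A-EGFP splicing minigene plus DsRed2 were seeded at 600 cells/well in Opti-MEM with 2% FBS, pin-dosed and incubated 48 h at 37°C. Acumen cytometry (488 nm) gave the GFP/RFP total-intensity ratio.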
# ALDH1A1 inh = inhibitors of human aldehyde dehydrogenase 1A1. Purified ALDH1A1, NADH fluorescence, propionaldehyde substrate. Potency, µM (series often up to 75.3 µM), without a hit: at the top dose activity, negative = inhibition, hits mostly inhibitors. 7.3% of 220,000 active. AID 1030; active means well fitted inhibition curve with a large enough effect, not every such curve was filed as active; inconclusive means small, poorly fitted or top-dose-only effect, or another doubt; inactive means no such curve, though single readings can be large or run the other way;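 further: potency means the concentration at half of the fitted maximal effect; plate controls were no enzyme wells and a reference inhibitor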
# G9a inh = blocks human histone lysine methyltransferase G9a; Q96KQ7; G9a H3K9 monomethylation, AlphaScreen, 2 h; Potency, µM (highest dose often 102 µM), for the others: top-dose activity, negative = inhibition, hits mostly inhibitors; 8.8% of 350,000 active; AID 504332; further: potency means the concentration at half of the fitted maximal effect; on the % scale 0 is the no-effect control and ±100 the full control effect; nearly all actives have a fitted effect of over 75% in size
#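 Using a bead-based AlphaScreen, monomethylated H3K9 product from 2 h room-temperature reactions (G9a 20 nM, peptide 500 nM, SAM 20 uM) was detected with 0.5 ug/mL rabbit anti-H3K9me1 antibody.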
# Sfp PPTase inh = inhibitors of Bacillus subtilis Sfp phosphopantetheinyl transferase. Biochemical Sfp PPTase activity, qHTS. 310,000 compounds, 3.5% hits. Q9F4F7. Potency, µM, for the others: max response, negative = inhibition, usual class: inhibitors; active = well fitted inhibition curve with a large enough effect; inconclusive = small, poorly fitted or top-dose-only effect, or another doubt; inactive = no such curve, though single readings can be large or run the other way;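 note: the enzyme is Sfp with the accession as filed and its product quenches rhodamine fluorescence; potency is the fitted concentration of half-maximal effect; 0% = enzyme reaction without inhibitor and -100% = no enzyme wells; top concentration of the series not given in the record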
#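 Step 1, compound plus 15 nM Sfp-PPTase, 15 min, room temperature. Step 2, add rhodamine-CoA (5 uM) and BHQ-2-YbbR (12.5 uM). Step 3, read 525/598 nm fluorescence at 0 and 30 min.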
# * = called active by the depositor; u = inconclusive; x = no result given; [ ] = dose if it differs, or a comment. Unless noted, the call rests on the fitted dose curve; in most records, active means well fitted curve in the direction sought with a large enough effect; inconclusive means small, poorly fitted or top-dose-only effect, or another doubt; inactive means no such curve, though single readings can be large; an effect the other way counts as inactive or inconclusive.
SMILES,miR-21 reporter,KDM4E inh,LMNA splice mod,ALDH1A1 inh,G9a inh,Sfp PPTase inh
C=CC1=C2C=C(C3CC3)N(C3CCCCC3)C=C2C(=O)C(C)(OC(=O)c2ccco2)C1=O (stereo not drawn),x,-15%[11.4 µM],-18%[9.22 µM],1%[13.5 µM],x,-4%
COc1ccc(N2CCN(c3nccs3)CC2)cc1,-56%,x,x,x,50µM*,8%
C=CCc1cc(OC)ccc1OCC(O)CN1CCN(c2ccc(OC)cc2)CC1 (stereo not drawn),4%,-8%,-2%,-7%,28µM*,-11%
Cc1ccc(N2CCN(CC(O)COc3ccccc3)CC2)cc1 (stereo not drawn),-12%,x,x,x,-19%,0%
CC(COc1cccc2ccccc12)CN1CCN(C)CC1 (stereo not drawn),-18%,-12%,11%,-11%,45µM*,7%
COc1ccc(CNC(=O)C2CCN(c3nccs3)CC2)cc1,-5%,6%,-6%,5%,2%,9%
COCCOCC(O)CN1CCN(c2ccc(C)cc2)CC1 (stereo not drawn),-10%,10%,6%,11µM*,4.5µM*,79µM*
O=c1oc2ccc3ccccc3c2cc1-c1nnc(Nc2ccccc2)s1,-1%,x,x,x,112%[59 µM],x
COc1ccc(N2CCN(CC(O)COc3c(OC)cccc3OC)CC2)cc1 (stereo not drawn),-17%,x,x,x,35µM*,-2%
COc1ccc(N2CCN(CC(O)COc3cc(C)cc(C)c3)CC2)cc1 (stereo not drawn),0%,x,x,x,40µM*,1%
COc1ccc(N2CCN(CC(O)COc3ccccc3C(C)(C)C)CC2)cc1 (stereo not drawn),18%,x,x,x,11µM*,x
COc1cccc(OCC(O)CN2CCN(C)CC2)c1 (stereo not drawn),-1%,x,x,x,25µM*,u
COc1cccc(OCC(O)CO)c1 (stereo not drawn),-3%,9%,9%,4%,3%[12.7 µM],29%
Cc1c(NC(=O)c2sc3c([N+](=O)[O-])cccc3c2Cl)cccc1-c1nc2ccccc2o1,0%,x,x,x,u,x
CCc1ccccc1NC(=O)C(=O)NCC(c1cccnc1)N1CCN(c2ccccc2F)CC1 (stereo not drawn),3%,x,8%[46 µM],x,1%[59 µM],x
CC1COC(=O)C(NNc2ccc(Cl)c(Cl)c2)=N1 (stereo not drawn),-2%,4%,-3%[46 µM],6%,-44%,-8%
O=[N+]([O-])c1ccc(-c2cnc(NO)nc2)cc1,-46%,u,u,u,7.9µM*,56µM*
COc1ccc(S(=O)(=O)Nc2ccccc2C(=O)NCc2ccco2)cc1,-2%,u,-2%,u,14µM*,-6%
COc1ccccc1NC(=O)COC(=O)c1ccc(S(=O)(=O)NCc2ccco2)cc1,-1%,3%,16%,19%,46%[12.7 µM],-8%
COc1ccc(NC(=O)c2ccccc2NS(=O)(=O)c2ccc(C)cc2)c([N+](=O)[O-])c1,-2%,-3%,u,-9%,3.2µM*,10%
COc1ccccc1NS(=O)(=O)c1ccc(C(=O)OCC(=O)NCc2ccco2)cc1,-3%,1%,1%,-11%,50µM*,u
C/C=C1\COC(C(=O)NCCCN2CCCC2=O)(C(F)(F)F)C=C1C=C(C)C (stereo not drawn),x,x,x,x,x,9%
COc1cccc(Cn2ncc3c4sc(Br)cc4n(C)c3c2=O)c1,x,x,x,x,0%[12.7 µM],x
Cc1c(O)c(=O)c2ccccc2n1C,-7%,u,6%,u,45µM*,-27%
COc1ccc(CCNC(=O)CCCn2nc(C)c3sc4ccccc4c3c2=O)cc1OC,-59%,x,x,x,u,x

# Quoted at random: 4 records from the list, in no set order.
SMILES,miR-21 reporter,KDM4E inh,LMNA splice mod,ALDH1A1 inh,G9a inh,Sfp PPTase inh
O=c1oc2ccc3ccccc3c2cc1-c1nnc(Nc2ccccc2)s1,-1%,x,x,x,112%[59 µM],x
COc1cccc(Cn2ncc3c4sc(Br)cc4n(C)c3c2=O)c1,x,x,x,x,0%[12.7 µM],x
C=CCc1cc(OC)ccc1OCC(O)CN1CCN(c2ccc(OC)cc2)CC1 (stereo not drawn),4%,-8%,-2%,-7%,28µM*,-11%
Cc1ccc(N2CCN(CC(O)COc3ccccc3)CC2)cc1 (stereo not drawn),-12%,x,x,x,-19%,0%

# The listing continues:
SMILES,miR-21 reporter,KDM4E inh,LMNA splice mod,ALDH1A1 inh,G9a inh,Sfp PPTase inh
O=C(COCc1cc(-c2ccco2)on1)Nc1cccc(O)c1,-16%,x,-5%[46 µM],x,-40%[59 µM],x
Cc1nn(-c2ccccc2)c(Cl)c1/C=N/NC(=O)CNC(=O)c1ccccc1Cl,2%,0%,-11%,7.1µM*,2%[59 µM],-12%
CCOc1ccc(Oc2c(/C=N/NC(=O)COc3ccccc3OC)c(C)nn2-c2ccccc2)cc1,10%,0%,u,u,9%[59 µM],-12%
Cc1nn(-c2ccccc2)c(Cl)c1/C=N/Nc1nc2ccccc2n1C,-22%,-5%,u,12%,50µM*,-2%
CCOc1ccc(Oc2c(/C=N/NC(N)=O)c(C)nn2-c2ccccc2)cc1,-18%,4%,-9%,32µM*,-50%[59 µM],-14%
Cn1c2ccccc2c2c(C(=O)N3CCN(c4ccccc4)CC3)cn(C3CCCC3)c(=O)c21,0%,5%,19%,u,50µM*,-4%
Cc1cccc(N2CCN(C(=O)c3cn(C)c(=O)c4c3c3ccccc3n4C)CC2)c1C,-2%,10%,u,u,50µM*,-26%
COc1ccc(-n2c(SCC(=O)Nc3cccc(C)c3C)nc3c([nH]c4ccccc43)c2=O)cc1,9%,x,u,x,9%[59 µM],x
CC[C@H](C)[C@H](NC(=O)[C@H](Cc1ccc(O)cc1)NC(=O)[C@@H]1CCCN1C(=O)[C@@H](NC(=O)[C@@H](N)CCCCN)[C@@H](C)CC)C(=O)N[C@@H](CC(C)C)C(=O)O,x,x,x,x,x,15%
COc1ccc(Oc2cc(C)nc(Cl)n2)nn1,6%,-6%,-7%[9.22 µM],8.9µM*,-14%,-8%
COc1ccccc1OCC(=O)N(Cc1ccco1)Cc1ccccc1F,2%,x,x,x,-7%[59 µM],x
CN1CCN(C(CNC(=O)c2ccc(F)cc2)c2ccc3c(c2)OCO3)CC1 (stereo not drawn),-8%,x,-7%[46 µM],x,4%[59 µM],x
CCN(CC)c1ccc(C2Nc3ccccc3-c3cc(C)nn32)cc1 (stereo not drawn),-12%,x,x,x,22µM*,x
CC[C@]12CCCN3CCc4c(n(c5ccccc45)C(=O)C1)[C@H]32,x,4%,x,7%,x,9%
O=C(C1CCC(CNS(=O)(=O)c2cccc3cccnc23)CC1)N1CCCC1 (stereo not drawn),-8%,1%,-14%,-8%,-21%,-1%
O=S(=O)(NCC1CCCN(Cc2ccccc2O)C1)c1cccc2cccnc12 (stereo not drawn),2%,x,x,x,71µM*,18%
COCCNC(=O)CCc1c(C)n(C)c2cc(-c3cc(OC)c(OC)c(OC)c3)nn2c1=O,3%,x,8%[46 µM],x,7%[59 µM],x
COc1cc(CCC(C)=O)ccc1OC(=O)c1c(F)cccc1Cl,-62%,-10%,x,-8%,200%,4%
COc1ccc(/C=N/n2c(-c3cccs3)n[nH]c2=S)cc1,4%,-26%,-15%,-9%,u,-30%
S=c1[nH]nc(-c2cccs2)n1/N=C/c1c(Cl)cccc1Cl,-8%,0%,-10%[46 µM],16µM*,1.3µM*,-60%

# Shown with each value named: part of the list above.
Cc1ccc(N2CCN(CC(O)COc3ccccc3)CC2)cc1 (stereo not drawn)
  miR-21 reporter: -12%
  KDM4E inh: x
  LMNA splice mod: x
  ALDH1A1 inh: x
  G9a inh: -19%
  Sfp PPTase inh: 0%

CC(COc1cccc2ccccc12)CN1CCN(C)CC1 (stereo not drawn)
  miR-21 reporter: -18%
  KDM4E inh: -12%
  LMNA splice mod: 11%
  ALDH1A1 inh: -11%
  G9a inh: 45µM*
  Sfp PPTase inh: 7%

# Compound activity from PubChem BioAssay.
